The values below come from PubChem BioAssay AID588456 (National Center for Advancing Translational Sciences (NCATS), 2011).

Chains of the proteins cited; added tags and fusions are not shown.
UniProt O89049, whole entry, looked up: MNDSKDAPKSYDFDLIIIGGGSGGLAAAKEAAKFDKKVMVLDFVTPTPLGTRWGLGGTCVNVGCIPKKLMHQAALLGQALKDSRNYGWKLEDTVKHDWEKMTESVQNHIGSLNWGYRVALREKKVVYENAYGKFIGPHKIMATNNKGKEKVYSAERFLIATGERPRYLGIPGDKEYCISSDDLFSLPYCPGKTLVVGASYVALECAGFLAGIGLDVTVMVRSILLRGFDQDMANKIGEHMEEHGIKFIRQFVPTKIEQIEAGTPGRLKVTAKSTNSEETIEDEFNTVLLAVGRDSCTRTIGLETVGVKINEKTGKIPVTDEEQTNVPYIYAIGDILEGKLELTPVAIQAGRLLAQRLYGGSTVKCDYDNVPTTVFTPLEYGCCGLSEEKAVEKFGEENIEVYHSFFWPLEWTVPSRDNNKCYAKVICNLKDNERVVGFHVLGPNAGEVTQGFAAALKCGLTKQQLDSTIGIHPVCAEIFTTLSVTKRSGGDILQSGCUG

For this assay, the target named is Thioredoxin reductase 1, cytoplasmic (Rattus norvegicus) (UniProt O89049). Description: qHTS Assay for Substrates of Mammalian Selenoprotein Thioredoxin Reductase 1 (TrxR1): qHTS. Note: nearly all actives have a fitted effect of over 50% in size. Particulars: purified TrxR1 substrate turnover, NADPH consumption readout. (Quantitative high-throughput screening tests each substance at several concentrations.)
Setting [1] is: at 114 µM (top of the series) unless noted.

This is a selection; strong and weak results do not stand in their true shares. Calls of active or inactive are those of the source. Calls come from the whole dose curve; as a rule, active = well fitted inhibition curve with a large enough effect; inconclusive = small, poorly fitted or top-dose-only effect; inactive = no such curve, though single readings can be large or run the other way.
% is set by controls: 0 for no effect and ±100 for the full control effect.

Regarding `Clc1n[nH]nc1-c1nn[nH][15n]1`, the activity change, negative = substrate turnover under setting [1] is inactive: 2.89%.
Still for that read-out and setting: the figure for `CC(C)(C)C(=O)NC(Sc1ncccn1)C(Cl)(Cl)Cl` (configuration not stated) is inactive: 2.92%; for `CCOP(=O)(Nc1ccc(C)cn1)OCC` it is inactive: 25.7% [at 57.1 µM].
In the case of `CN(CCCl)Cc1cc(Cl)c(NC2=NCCN2)c(Cl)c1`, the activity change, negative = substrate turnover by setting is: (at 57.1 µM (top of the series)) inactive: 3.39%; (at 114 µM (top of the series)) inactive: 2.99%.
Turning to `O=P1(Nc2ccccn2)COc2ccccc2OC1`, under setting [1], the activity change, negative = substrate turnover was inactive: 6.55% [at 57.1 µM].
Same read-out and setting: the figure for `CCC1=CC2Cc3nc4ccc(Cl)cc4c(N)c3C(C1)C2` (configuration not stated) is inactive: 5.18%.
Consider `CCOP(=O)(NC(=NC(C)c1ccccc1)NC(C)c1ccccc1)OCC` (configuration not stated), for which the activity change, negative = substrate turnover under setting [1] is inactive: 2.76%.
Take `CC1(CBr)Cn2c(nc3ccccc3c2=O)S1` (configuration not stated): the activity change, negative = substrate turnover under setting [1] is inactive: 0.0086%.
Same read-out and setting: the figure for `CC(C)/C=N\N=C(\N)N[N+](=O)[O-]` is inactive: -13.9% [at 57.1 µM].
Same read-out and setting: the figure for `CN(C(=O)Cc1ccc(Cl)c(Cl)c1)[C@@H]1CCCC[C@H]1N1CCCC1` is inactive: 1.19%; for `COc1ccccc1CNC(=O)COC(=O)C(O)(c1ccccc1)c1ccccc1` it is inactive: 0.586%; for `O=C(/C=C/c1ccccc1)OC1CN2CCC1CC2` (configuration not stated) it is inactive: 3.91% [at 57.1 µM].
In the case of `CCCC1OP(=O)(Nc2ccccc2)OCC1CC` (configuration not stated), the activity change, negative = substrate turnover under setting [1] is inactive: 8.28%.
Take `CN(C)C1(CNC(=O)c2ccc(S(C)(=O)=O)cc2)CCCCC1`: the activity change, negative = substrate turnover under setting [1] was inactive: 4.15%.
For `Cc1nn(-c2ccccc2)c2c1P(=O)(N1CCOCC1)N(C)C(c1ccccc1)=N2` (configuration not stated), under setting [1], the activity change, negative = substrate turnover was inactive: 9.24% [at 57.1 µM].
Take `CC1CCC(C(C)C)C(OP(=O)(Nc2ccccn2)c2ccccc2)C1` (configuration not stated): the activity change, negative = substrate turnover under setting [1] was inactive: -4.67%.
Still for that read-out and setting: the figure for `Cc1ccc(C(=O)OC2CN3CCC2CC3)cc1` (configuration not stated) is inactive: 4.72%.
Consider `COc1cc([N+](=O)[O-])ccc1[N+](=O)[O-]`, for which, under setting [1], the activity change, negative = substrate turnover is inactive: -0.161%.
Same read-out and setting: the figure for `O=[As](O)(c1cccs1)c1cccs1` is inactive: 3.76% [at 57.1 µM].
The same measure, in the same setting: the figure for `Cc1ccc(OCC(=O)OC2CN3CCC2CC3)cc1` (configuration not stated) is inactive: 4.72%; for `O=P1(Nc2ccc(Br)cn2)COc2ccccc2OC1` it is inactive: 1.67%.
Turning to `NS(=O)(=O)c1cccc(NC(=O)COC(=O)C(O)(c2ccccc2)c2ccccc2)c1`, the activity change, negative = substrate turnover under setting [1] was inactive: 3.37%.
Consider `Nc1cccc([As](=O)(O)c2ccccc2)c1`, for which the activity change, negative = substrate turnover under setting [1] was inactive: 7.79%.
On the same count and under the same terms, the figure for `O=P1(Nc2ncccn2)COc2ccccc2OC1` is inactive: 10.4% [at 57.1 µM].
Regarding `Nc1ccccc1[As](=O)(O)c1ccccc1`, under setting [1], the activity change, negative = substrate turnover is inactive: 0.59%.
On the same count and under the same terms, the figure for `O=C(O)COc1ccc([As](=O)(O)O)cc1[N+](=O)[O-]` is inactive: -5.11%.
Still for that read-out and setting: the figure for `CS(=O)(=O)c1cc([N+](=O)[O-])c2no[n+]([O-])c2c1` is inactive: -8.37%; for `CCOP1(=S)c2c(C)nn(CCC#N)c2N=C(c2ccccc2F)N1C` (configuration not stated) it is inactive: 10.8% [at 57.1 µM].
The same measure, in the same setting: the figure for `O=P(Nc1nccs1)(Oc1ccccc1)Oc1ccccc1` is inactive: 3.34%.
`O=P(Nc1nccs1)(c1ccccc1)c1nc2ccccc2s1` (configuration not stated): under setting [1], the activity change, negative = substrate turnover was inactive: 5.69%.
Still for that read-out and setting: the figure for `O=[N+]([O-])c1ccc2c(c1)nnn2O` is inactive: -7.94%; for `CN(C)C(=O)c1cc([N+](=O)[O-])cc2c1-c1c(cc([N+](=O)[O-])cc1[N+](=O)[O-])C2=O` it is inactive: -16.1%; for `CN(C(=O)Cc1ccc(Cl)c(Cl)c1)[C@H]1CC[C@@]2(CCCO2)C[C@@H]1N1CCCC1` it is inactive: 0.234%.
With `N#CCCN(C(=O)COC(=O)C(O)(c1ccccc1)c1ccccc1)c1ccc(F)cc1`, the activity change, negative = substrate turnover under setting [1] is inactive: -1.83%.
For the molecule `CN(C(=O)Cc1ccccc1)[C@@H]1CC[C@]2(CCCO2)C[C@H]1N1CCCC1`, the activity change, negative = substrate turnover runs as follows: (at 57.1 µM (top of the series)) inactive: 16.3%; (at 114 µM (top of the series)) inactive: 6.07%.
For `CCOP1(=S)c2c(C)nn(CCC#N)c2N=C(c2ccc(F)cc2)N1C` (configuration not stated), under setting [1], the activity change, negative = substrate turnover was inactive: 2.35%.
The same measure, in the same setting: the figure for `NC(=O)Nc1ccc([As](=O)(O)O)cc1` is inactive: -0.401%.
`Cc1cccc(OCC(=O)OC2CN3CCC2CC3)c1` (configuration not stated): the activity change, negative = substrate turnover under setting [1] was inactive: 5.68% [at 57.1 µM].
Still for that read-out and setting: the figure for `O=[As](O)(c1cccc(O)c1)c1cccc(O)c1` is inactive: 1.23%; for `O=[As](O)(O)c1cccnc1` it is inactive: 12.2%; for `COc1cc(C(=O)NCC2(N3CCOCC3)CCCCC2)cc(Cl)c1OC(C)C` it is inactive: 4.66% [at 57.1 µM].
Same read-out and setting: the figure for `CS(=O)(=O)c1ccc(Cl)c(NC(=O)COC(=O)C(O)(c2ccccc2)c2ccccc2)c1` is inactive: -10.4%; for `O=C(OC1CN2CCC1CC2)c1ccc(Cl)cc1` (configuration not stated) it is inactive: -3.72%.
Same read-out and setting: the figure for `COc1cc(C2NCCC3(OCCO3)C2(C)C)cc(OC)c1OC` (configuration not stated) is inactive: -3.91%.
For the molecule `CCOP(=O)(Nc1cccc2ccccc12)OCC`, under setting [1], the activity change, negative = substrate turnover was inactive: 19.7%.
